High-throughput results as filed in PubChem BioAssay.
A selection: hits, their analogues and other compounds. The true share with any hit is near 2.1%.
miR-122 sensor: blocks miR-122 activity in Huh7 sensor cells | activation (reporter increase), % at 12.5 µM | Huh7 miR-122 Renilla luciferase sensor, 48 h; neutral wells = 0, positive control = 100 | 340,000 compounds, 0.3% hits;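 active = mean replicate activation score at least 90 and every replicate individually at or above 90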;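 also: higher luciferase means less miR-122 activity so hits act as miR-122 inhibitors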
Wnt act: activators of Wnt/beta-catenin signaling; 300,000 compounds, 1.2% hits; activation, % at 9.35 µM; Wnt/beta-catenin reporter cell assay, activator, plate reader; in the data active = activation above about 30%, passing the limit was not always enough;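 also: 0% = neutral control wells and 100% = positive control wells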
MITF TRPM1 inh: inhibitors of MITF-driven TRPM1 promoter in melanoma cells; AID 488899; SK-MEL-5 TRPM1 promoter luciferase, 24 h; inhibition, % at 12.5 µM; 330,000 compounds, 0.83% hits;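 active = mean inhibition across replicates of 60% or more, whatever share of single replicates reaches that level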
Yeast UUG start-1: alters start codon recognition fidelity in yeast; AID 602363; activity score, % at 18.7 µM; 350,000 tested, 0.13% active; S. cerevisiae UUG-firefly luciferase reporter, luminescence/redox ratio;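 active means replicate mean at a twofold rise or more, about +100% in these data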;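 further: firefly luciferase made from a UUG start codon reports start codon fidelity; reporter light over untreated wells divided by growth signal over untreated wells; some hits fall short of that in this replicate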
PGC1a acetyl inh: lowers PGC1a acetylation signal in U2OS cells; AlphaScreen anti-acetyl-lysine; with virally co-expressed GCN5 acetyltransferase; inhibition, % at 15.6 µM; 350,000 compounds, 0.17% hits; AID 651687;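 active = every replicate shows inhibition of at least 40%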;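 also: 0% = neutral control wells and 100% = positive control wells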
MITF act: activators of MITF-driven TRPM1 promoter activity in SK-MEL-5 cells; SK-MEL-5 TRPM1-promoter luciferase, 24 h; % of positive control, neutral wells = 0; activation, % at 12.5 µM; 300,000 compounds, 0.75% hits;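 active = mean activation of at least 80% with every replicate also reaching 80%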;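 also: 0% = neutral control wells and 100% = parthenolide positive control wells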
miR-27b qPCR: miR-27b effect in Huh7 as miR-122 inhibitor selectivity check. Huh7 miR-27b levels, qRT-PCR, 48 h. shares compounds with miR-122 sensor. AID 687039. relative miR-27b level (unnormalised ratio), ratio at 35 µM. 35 tested, under 10 active;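 active = compounds lowering miR-27b whose fitted half-maximal dose is at most twice their top tested dose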
Yeast UUG start-2: yeast start codon fidelity modulation | shares compounds with Yeast UUG start-1 | S. cerevisiae UUG-start firefly luciferase, luminescence, 4 h; 100% means double the DMSO signal | activation, % at 38 µM | 540 tested, under 10 active;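 active = signal increase whose fitted curve reaches an absolute level of 40 at a concentration under 10 µM; inactive = activity opposite to the expected increase, or the rest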
Starred values were filed as active, the others as inactive; i = inactive; . = no result given; [ ] = another dose, or the depositor's remark.

SMILES	miR-122 sensor	Wnt act	MITF TRPM1 inh	Yeast UUG start-1	PGC1a acetyl inh	MITF act	Yeast UUG start-2	others
COc1ccc(C(C)(C)C)cc1S(=O)(=O)NCC1CCCO1 (stereo unspecified)	170*	1	3	-10	-14	.	.	miR-27b qPCR=0.81
COC(=O)c1c2oc(c1C(=O)OC)C(=O)N[C@H](Cc1ccccc1)Cn1cc(nn1)CNC(=O)[C@H](Cc1ccccc1)NC(=O)N[C@@H](CO)CC2	.	.	.	216*	1	.	i
COC(=O)c1c2oc(c1C(=O)OC)C(=O)N[C@@H](Cc1ccccc1)Cn1cc(nn1)[C@@H](Cc1ccccc1)NC(=O)N[C@@H](CO)CC2	.	.	.	.	0	.	.
COC(=O)C1=C2CC[C@H](CO)NC(=O)N[C@H](Cc3ccccc3)C(=O)NCc3cn(nn3)C[C@@H](Cc3ccccc3)NC(=O)c3oc(c(C(=O)OC)c3C(=O)OC)CC[C@H](CO)NC(=O)N[C@H](Cc3ccccc3)C(=O)NCc3cn(nn3)C[C@@H](Cc3ccccc3)NC(=O)C(=C1C(=O)OC)O2	.	.	.	63	.	.	.
COC(=O)c1c2oc(c1C(=O)OC)C(=O)N[C@@H](Cc1ccccc1)Cn1cc(nn1)CNC(=O)[C@H](Cc1ccccc1)NC(=O)N[C@@H](CO)CC2	.	.	.	113*	9	.	i
CC(C)[N+](C)(C)CC#CC(O)(c1ccccc1)c1ccccc1	.	-2	12	.	8	.	7
C[N+]1(CC#CC(O)(c2ccccc2)c2ccccc2)CCCC1	.	-6	8	.	.	-2	5
C[C@@H]1CN([C@H](C)CO)C(=O)c2cc(NS(=O)(=O)c3cn(C)cn3)ccc2O[C@@H](C)CCCCO[C@@H]1CN(C)S(C)(=O)=O	-1[16.7 µM]	.	.	6	3	.	.
O=C(c1cccnc1)N1C[C@@H]2[C@H](c3ccccc31)[C@@H](CO)N2C(=O)C1CCOCC1	-12[16.7 µM]	.	.	117*	-3	.	i
O=C(c1cccnc1)N1C[C@@H]2[C@H](c3ccccc31)[C@H](CO)N2C(=O)C1CC1	-10[16.7 µM]	.	.	115*	-1	.	i
C[C@@H]1CCCCO[C@H](CN(C)C(=O)Nc2cccc3ccccc23)[C@H](C)CN([C@@H](C)CO)C(=O)c2cc(NS(C)(=O)=O)ccc2O1	-6[16.7 µM]	.	.	15	-9	.	.
C[C@@H](O)C#Cc1cnc2c(c1)C(=O)N([C@@H](C)CO)C[C@H](C)[C@@H](CN(C)C(=O)c1ccccc1)O2	-7[16.7 µM]	.	.	-7	-2	.	.
COC(=O)c1ccccc1NC(=O)CNC(=O)c1ccc(OC)cc1	-3	-3	1	264*	-8	2	-11
COc1ccccc1NC(=O)CNC(=O)c1ccccc1	4	.	3	7	5	-3	.
NC(=O)CSc1nnc(-c2ccncc2)n1CCc1ccccc1	0	3	15	173*	-5	.	-2
CCN(CC)S(=O)(=O)c1cccc(-c2nnc(SCC(N)=O)n2CCc2ccccc2)c1	-1	-6	8	-10	-2	-4	.
O=C(C[C@H]1C[C@@H]2c3cc(NC(=O)Nc4ccccc4)ccc3O[C@@H]2[C@H](CO)O1)NCc1cccnc1	0[16.7 µM]	.	.	-13	0	.	.
COc1ccc(Nc2cc(C)nc(NCc3ccccc3)n2)cc1	-11	-3	19	624*	-8	.	-7
COCCn1c(C)cc(C(=O)CSc2nnc(-c3cccnc3)n2-c2ccccc2F)c1C	4	.	2	7	.	.	.
Cc1ccccc1-n1c(SCC(=O)c2cc(C)n(C)c2C)nnc1-c1cccnc1	-7	.	4	.	-10	-4	-5
C[C@H]1CN([C@@H](C)CO)C(=O)c2cccc(NC(=O)c3ccc(-c4nccs4)cc3)c2O[C@H]1CN(C)Cc1ccc(Cl)c(Cl)c1	32[16.7 µM]	.	.	3	9	.	.
COc1ccc(NC(=O)Cc2nn(C)c(=O)c3ccccc23)cc1	.	.	.	.	.	.	i
COc1ccc(CCNC(=O)Cc2nn(C)c(=O)c3ccccc23)cc1OC	-4	0	15	6	7	-13	-8
Cn1nc(CC(=O)Nc2ccc(OC(=O)c3ccccc3)cc2)c2ccccc2c1=O	.	.	.	.	.	.	i
Cn1nc(CC(=O)Nc2ccc3c(c2)CCC3)c2ccccc2c1=O	5	-7	27	-10	.	.	-3
COc1ccc(NC(=O)COc2ccc(-c3nn(C)c(=O)c4ccccc34)cc2)cc1	4	-1	4	0	-16	2	.
COc1ccc(CCNC(=O)CNC(=O)c2nn(-c3ccc(OC)c(OC)c3)c(=O)c3ccccc23)cc1OC	-3	0	-10	-5	8	18	.
Cn1nc(CC(=O)Nc2ncc(Br)s2)c2ccccc2c1=O	-1	0	-10	-20	-11	8	.
C[C@H](CO)N1C[C@H](C)[C@@H](CN(C)C)Oc2ncc(C#CCN(C)C)cc2C1=O	-5[16.7 µM]	.	.	1	-5	.	.
O=C(C[C@@H]1C=C[C@H](NC(=O)c2cccc(F)c2)[C@H](CO)O1)NCc1ccccc1	20[16.7 µM]	.	.	-2	-1	.	.
CCCNC(=O)N1CC[C@@H]2[C@H]1c1cc(-c3ccc(F)cc3)ccc1N(C)[C@H]2CO	1[16.7 µM]	.	.	1	-1	.	.
c1ccc2c(c1)nc(N1CCOCC1)c1nnnn12	-7	7	-11	-18	-10	16	.
C1CN(c2nc3nonc3n3nnnc23)CCO1	0	.	-2	442*	-1	.	8
CCC(=O)N1C[C@H](C)[C@@H](OC)CN(C)C(=O)c2ccc(NC(=O)c3ccc(F)cc3)cc2OC[C@@H]1C	.	.	.	.	0	.	.
CCC(=O)Nc1ccc2c(c1)C(=O)N(C)[C@H]1CC[C@@H](CC(=O)NCC3CCCCC3)O[C@@H]1CO2	0[16.7 µM]	.	.	22	8	.	.
CCCC(=O)Nc1ccccc1NC(=O)c1ccc(OCC)c(OCC)c1	.	-1	13	.	.	-11	.
CCCC(=O)Nc1ccccc1NC(=O)c1ccc(OC(C)=O)cc1	-5	0	0	444*	-3	0	12
COc1ccccc1C#Cc1cnc2c(c1)C(=O)N([C@@H](C)CO)C[C@H](C)[C@H](CN(C)C(=O)CN(C)C)O2	0[16.7 µM]	.	.	-1	0	.	.
COc1ccc(-c2ccc3c(c2)O[C@H](CN(C)C(=O)c2ccccc2F)[C@H](C)CN([C@H](C)CO)S3(=O)=O)cc1	-7[16.7 µM]	.	.	25*	11	.	i
Cc1ccccc1-c1ccc2c(c1)O[C@H](CN(C)C(=O)c1ccccn1)[C@H](C)CN([C@H](C)CO)S2(=O)=O	33[16.7 µM]	.	.	139*	-15	.	i

Arranged by heavy-atom count (lowest first): part of the list above
SMILES	miR-122 sensor	Wnt act	MITF TRPM1 inh	Yeast UUG start-1	PGC1a acetyl inh	MITF act	Yeast UUG start-2	others
c1ccc2c(c1)nc(N1CCOCC1)c1nnnn12	-7	7	-11	-18	-10	16	.
CCCC(=O)Nc1ccccc1NC(=O)c1ccc(OCC)c(OCC)c1	.	-1	13	.	.	-11	.
CCC(=O)N1C[C@H](C)[C@@H](OC)CN(C)C(=O)c2ccc(NC(=O)c3ccc(F)cc3)cc2OC[C@@H]1C	.	.	.	.	0	.	.
Cc1ccccc1-c1ccc2c(c1)O[C@H](CN(C)C(=O)c1ccccn1)[C@H](C)CN([C@H](C)CO)S2(=O)=O	33[16.7 µM]	.	.	139*	-15	.	i
COc1ccc(-c2ccc3c(c2)O[C@H](CN(C)C(=O)c2ccccc2F)[C@H](C)CN([C@H](C)CO)S3(=O)=O)cc1	-7[16.7 µM]	.	.	25*	11	.	i
